The source of these data is ChEMBL document CHEMBL1145986, “Dual protein farnesyltransferase-geranylgeranyltransferase-I inhibitors as potential cancer chemotherapeutic agents” (J Med Chem, 2003).

This test has as its target Protein farnesyltransferase (Homo sapiens, UniProt P49354+P49356). The experiment in a line: Concentration required to inhibit recombinant human farnesyltransferase (FTase) catalyzed incorporation of [3H]FPP into recombinant Ras-CVIM. Type of test: protein-complex assay. The procedure, abridged: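 Recombinant human FTase transferring [3H]FPP onto recombinant Ras-CVIM, a yeast Ras1/human Ras fusion carrying the K-Ras CaaX box. IC50 is the concentration giving 50% inhibition of label incorporation. Standard errors were typically under ±50% of the mean, and data with n > 2 are given as mean ± SEM.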

In the case of `CC[C@@]1(c2cccc(Oc3cc([C@](C)(N)c4cncn4C)ccc3C#N)c2)CCCCN(C)C1=O`, the IC50 is 0.06 nM.

Usually IC50 stands for the concentration needed to halve the response being measured.
